Assay results reported in patent US12673017B2, “Ultra-mild, concentrated and self-preserving cleansing compositions for personal care” (GALAXY SURFACTANTS LTD, priority 2022, dated 2026).

Tested on: blood capillaries of chorioallantoic membrane of hen's fertilized egg
Assay: HET-CAM test (hen's egg test on chorioallantoic membrane, Invittox protocol 47)
Parameters: species or system White Leghorn chicken
Source text: The HET-CAM (Hen's egg test on chorioallantoic membrane, as per Invittox Protocol 47) method. The hen's egg test on Chorioallantoic Membrane (HET-CAM) is an alternative in-vitro method developed by Luepke et al. to substitute Draize test that was done on rabbits. (Luepke N. Hen's egg chorioallantoic membrane test for irritation potential. Food Chem Toxicol. 1985; 23(2):287-291). It is subsequently modified by […] et al. ([…] Test. The […]. Databank of in-vitro techniques. […] Subsequently, the methodology is successfully adopted to personal care by […] et al. ([…], Bracher M, Courtellemont P, de Silva O. The HET-CAM, a useful in vitro assay for assessing the eye irritation properties of cosmetic formulations and ingredients. Toxicol. […] The egg's shell is opened at the side of the air chamber, and the egg white membrane is removed while avoiding any damage to the fine blood vessels. […] The membrane is carefully moistened with 0.9% NaCl solution and the eggs are replaced in incubator until ready for assaying. […] Onset of haemorrhage (Bleedings), vascular lysis (Blood vessel disintegration), coagulation (protein denaturation intra and extra vascular) is monitored. The onset of the biological endpoints is recorded in number of seconds and the irritancy scores are calculated as per formula prescribed in the protocol document. […]

N-Undecylenoyl glycine & N-capryloyl glycine (1:1)
Irritancy Score by HET-CAM: 8.5
